Experimental data published in patent publication US5677146.

Assays:
[1] = biological target: Cathepsin G, purified at Novo Nordisk A/S using the method of Baugh and Travis
[2] = biological target: Chymotrypsin (2.5 nM), Novo Nordisk A/S
[3] = biological target: Leukocyte Elastase, purified at Novo Nordisk A/S using the method of Baugh and Travis
[4] = biological target: Trypsin (8 nM), Novo Nordisk A/S, Bagsvaerd, Denmark
[5] = biological target: Urokinase (5 nM), Serono, Freigung, Germany
[6] = biological target: glandular kallikrein (1 U/ml), Sigma, St Louis, MO
[7] = biological target: human Factor XIIa (30 nM) (human) (UniProt P00748)
[8] = biological target: human Factor XIa (1 nM) (human) (UniProt P03951)
[9] = biological target: human Factor Xa (3 nM) (human) (UniProt P00742)
[10] = biological target: plasma kallikrein (3 nM), Kabi
[11] = biological target: recombinant human Factor VIIa (300 nM), Novo Nordisk A/S (human) (UniProt P08709)

“bovine aprotinin (amino acids 1-58) (from UniProt P00974)” gave a % Inhibition [1] of 4%, a % Inhibition [2] of 91.3% and a % Inhibition [3] of 1%. For the same substance, the % Inhibition (Plasmin (10 nM), Kabi) was 100%, the % Inhibition [4] was 100% and the % Inhibition [5] was 1%. It also gave a % Inhibition [6] of 91.4%, a % Inhibition [7] of 2% and a % Inhibition [8] of 59%. For the same substance, the % Inhibition [9] was 1%, the % Inhibition [10] was 83% and the % Inhibition [11] was 1%.
